# Test results as given in IntAct's records for PubMed 17350572.
# B1: Programmed cell death 6-interacting protein (Homo sapiens), Q8WUM4 (parent)
# chain: MATFISVQLKKTSEVDLAKPLVKFIQQTYPSGGEEQAQYCRAAEELSKLRRAAVGRPLDKHEGALETLLRYYDQICSIEPKFPFSENQICLTFTWKDAFDKGSLFGGSVKLALASLGYEKSCVLFNCAALASQIAAEQNLDNDEGLKIAAKHYQFASGAFLHIKETVLSALSREPTVDISPDTVGTLSLIMLAQAQEVFFLKATRDKMKDAIIAKLANQAADYFGDAFKQCQYKDTLPKEVFPVLAAKHCIMQANAEYHQSILAKQQKKFGEEIARLQHAAELIKTVASRYDEYVNVKDFSDKINRALAAAKKDNDFIYHDRVPDLKDLDPIGKATLVKSTPVNVPISQKFTDLFEKMVPVSVQQSLAAYNQRKADLVNRSIAQMREATTLANGVLASLNLPAAIEDVSGDTVPQSILTKSRSVIEQGGIQTVDQLIKELPELLQRNREILDESLRLLDEEEATDNDLRAKFKERWQRTPSNELYKPLRAEGTNFRTVLDKAVQADGQVKECYQSHRDTIVLLCKPEPELNAAIPSANPAKTMQGSEVVNVLKSLLSNLDEVKKEREGLENDLKSVNFDMTSKFLTALAQDGVINEEALSVTELDRVYGGLTTKVQESLKKQEGLLKNIQVSHQEFSKMKQSNNEANLREEVLKNLATAYDNFVELVANLKEGTKFYNELTEILVRFQNKCSDIVFARKTERDELLKDLQQSIAREPSAPSIPTPAYQSSPAGGHAPTPPTPAPRTMPPTKPQPPARPPPPVLPANRAPSATAPSPVGAGTAAPAPSQTPGSAPPPQAQGPPYPTYPGYPGYCQMPMPMGYNPYAYGQYNMPYPPVYHQSPGQAPYPGPQQPSYPFPQPPQQSYYPQQ
# Variants of: B1
# Conditions: with sh3g1_human SH3GL1, Q99961
row,Variant,effect of a mutation on the interaction
1,R757A;P758A,decreasing interaction
